Measured values: patent publication EP4825869A1, “CHEMOKINE RECEPTOR 8 ANTAGONISTIC POLYPEPTIDE COMPOUND, COMPOSITION, KIT, AND USE” (dated 2026)

Protein sequences, listed by entry. Tags and fused reporters are not part of them.
UniProt P51685, whole entry: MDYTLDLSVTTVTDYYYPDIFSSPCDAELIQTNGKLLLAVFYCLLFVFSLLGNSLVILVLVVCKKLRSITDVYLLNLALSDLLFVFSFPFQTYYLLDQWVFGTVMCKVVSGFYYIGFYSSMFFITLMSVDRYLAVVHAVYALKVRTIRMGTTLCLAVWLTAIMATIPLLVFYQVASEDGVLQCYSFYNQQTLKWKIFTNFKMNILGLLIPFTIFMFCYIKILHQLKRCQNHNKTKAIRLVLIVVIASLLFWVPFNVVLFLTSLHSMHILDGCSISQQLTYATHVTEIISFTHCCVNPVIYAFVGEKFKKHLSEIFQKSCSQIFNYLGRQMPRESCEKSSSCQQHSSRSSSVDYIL

Tests used:
[1] = target: Human CCR8 full-length protein (VLP) (Homo sapiens, UniProt P51685); experiment: In vitro SPR affinity assay of polypeptide compounds with CCR8 protein; details: for Ka: PBS with 0.05% Tween 20, association time 120 seconds
Experimental: Human CCR8 full-length protein (VLP) chips were prepared by amino coupling method. CCR8 full-length protein (VLP) was immobilized on two channels of a CM5 chip. This Experimental Example tested the strength of affinity of polypeptide compounds with CCR8 protein, to confirm their binding ability to the CCR8 receptor.
Vehicle for test compounds (TCR10 and TCR09): PBS solution (containing 0.05% Tween 20).
The polypeptide compounds were formulated into 1 mM solutions as drug stock solutions, and then serially diluted with the PBS solution into working solutions with concentrations of 2.56×10^-2 nM, 0.128 nM, 0.64 nM, 3.2 nM, 16 nM, 80 nM, 400 nM, 2 µM, and 10 µM, using the PBS solution as a blank control at the same time. The working solutions of the above concentrations were captured on the Fc3 and Fc4 channels of the CCR8(VLP)-CM5 chip using the PBS solution. The polypeptide compound samples to be tested at various concentrations and the blank control flowed through the test channels (Fc3 and Fc4) respectively, at a flow rate of 30 µL/min, with an association time of 120 seconds and a dissociation time of 120 seconds. After each test, the chip was regenerated with Gly-HCl buffer of pH 1.5.

[2] = tested on: interstitial dendritic cells; experiment: Transwell chemotaxis assay, migration of PBMC-derived interstitial dendritic cells
Text: PBMC-derived interstitial dendritic cells were induced to differentiate, and the migration number of interstitial dendritic cells in the presence or absence of polypeptide compounds was counted using the Transwell chemotaxis assay. This Experimental Example was used to evaluate whether polypeptide compounds block the migration of interstitial dendritic cell through the CCL1-CCR8 axis.
Vehicle for test compound (TCR10): PBS solution + RPMI 1640.
Antibody control: Anti-CCR8 antibody (purchased from Genomeditech, GM-30913AB); Vehicle: RPMI 1640.
CD14^+ monocytes were sorted from human PBMCs using magnetic beads and cultured in the presence of GM-CSF and IL-4 for 6 days to obtain interstitial dendritic cells. Expressions of CD209, CD1α, and CCR8 were detected by flow cytometry. The differentiated interstitial dendritic cells were collected and added to the upper chamber of the transwell. Samples were distributed to the upper and lower chambers of each chamber according to Table 3,wherein in the blank control group (abbreviated as "blank group"), only cells were added; in the positive control group, CCL1 and CXCL12 were added; in the test compound group, test compound plus CCL1 and CXCL12 were added; in the antibody control group, anti-CCR8 antibody plus CCL1 and CXCL12 were added; each group was tested in duplicate. […] Cells that migrated through the chamber were counted using a microscope. […]

[3] = tested on: Calcipotriol-Induced Mouse Atopic Dermatitis Model; experiment: Drug efficacy screening (preliminary screening), drug applied before MC903; details: topical, qd, 14 days, after the last administration; for pathological section of mouse dorsal skin: back 50 µL; for pathological section of mouse ear: ear 20 µL
Experimental: (§1) In the following Experimental Examples 1-2, SPR was used to determine the binding ability of polypeptide compounds to the CCR8 receptor, and the transwell chemotaxis assay was used to evaluate whether polypeptide compounds could inhibit cell migration by blocking the CCL1-CCR8 axis. In the following Experimental Examples 3-5, female Balb/c mice weighing 18-22 g were used; and a solution of 50mM MC903 (calcipotriol) in 75% ethanol was used as a modeling agent. MC903, i.e., calcipotriol, is a low-calcium analog of vitamin D3 widely used for treating psoriasis. Topical application of MC903 can stimulate epithelial keratinocytes in mice to highly express TSLP, promote differentiation of CD4+ T cells into Th2 cells, and activate and release inflammatory cytokines, causing mice to develop an atopic dermatitis phenotype.
After shaving the dorsal skin of mice, MC903 was applied once a day (50 µL was applied on dorsal skin with the area of 2cm*2cm, and 20 µL was applied on ear) to induce atopic dermatitis in mice. This Experimental Example was used to test the efficacy of the CCR8 antagonistic polypeptides in the present disclosure for preventing atopic dermatitis.
Vehicle for test compounds (TCR10 and TCR09): Normal saline.
Positive control drugs: 0.3 wt% mometasone gel (glucocorticoid) and KMC420 (JAK inhibitor, 10 mM; vehicle: normal saline).
Mice in the normal control group were only treated with 75% ethanol solution for 14 days without MC903-induced modeling. Mice in the model group were only applied with MC903 every day for 14 consecutive days. During the administration, mice in the positive control drug group and test compound (TCR9 and TCR10) groups were first applied with the positive control drug (application amounts for mometasone gel and KMC420 both were 50 µL on back, and 20 µL on ear (10 µL on each of the inner and outer sides)) or test compound (TCR10 and TCR09, both applied at a concentration of 20 mg/mL with 50 µL on back, and both applied at a concentration of 50 mg/mL with 10 µL on each of the inner and outer sides of the ear) every day. After drying thoroughly, the modeling agent was applied (50 µL was applied on dorsal skin, and 20 µL was applied on ear (10 µL on each of the inner and outer sides) each time), once a day for 14 consecutive days. Table 4 Compound Test Protocol for Drug efficacy Screening Test
Before modeling with MC903, the body weight, remaining food amount, and ear thickness of mice in each group were measured, and then, before daily administration, the body weight, remaining food amount, and ear thickness of mice in each group were measured. Photographs were taken and skin lesions were scored regularly on the ear and dorsal skin. […]

[4] = tested on: atopic dermatitis in mice; experiment: Dose-effect test, drug applied before MC903; details: topical, qd, 14 days; for dorsal skin lesions of mice: 3mg group (60 mg/mL 50 µL on back, 150 mg/mL 20 µL on ear), compared with the model group
Experimental: as §1
After shaving the dorsal skin of mice, MC903 was applied once a day (50 µL was applied on dorsal skin with the area of 2cm*2cm, and 10 µL was applied on each of the inner and outer sides of ear) to induce atopic dermatitis in mice. For mice in the administration groups (including positive control drug group and test compound group), drugs were pre-applied before each application of MC903 to test the preventive effect of drugs on atopic dermatitis.
Test compound solution: DMSO was used to dissolve the drug to a suitable concentration as a stock solution (stock solution for back: 200 mg/mL; stock solution for ear: 500 mg/mL). Then working solutions were prepared according to the following formula (by volume) and stored at 4°C: (1) 10% DMSO stock solution + 40% PEG300 + 5% Tween 80 + 45% NS (normal saline), resulting in final working solution having drug concentrations of: 20 mg/mL of working solution for back; 50 mg/mL of working solution for ear; (2) 30% DMSO stock solution + 40% PEG300 + 5% Tween 80 + 25% NS (normal saline), resulting in final working solution having drug concentrations of: 60 mg/mL of working solution for back; 150 mg/mL of working solution for ear.
Positive control drugs: 0.1 wt% mometasone furoate and 2 wt% crisaborole ointment. […]

[5] = CCR8(VLP)-CM5 chip, PBS with 0.05% Tween 20
[6] = CCR8(VLP)-CM5 chip, PBS with 0.05% Tween 20, dissociation time 120 seconds
[7] = read-out: affinities binding to human CCR8 protein

Row | Substance | Kd [1, 5] [nM] | Ka ([1]; CCR8(VLP)-CM5 chip) [M⁻¹ s⁻¹] | Kd [1, 6] [s⁻¹] | Kd [1, 7] [nM] | decrease in cell migration amount ([2]; 0.5 µg/mL, compared with anti-CCR8 antibody) | migration amount of interstitial dendritic cells (iDCs) ([2]; final concentration 0.5 µg/mL in upper chamber, CCL1 500 ng/mL and CXCL12 1 ng/mL in lower chamber, 5 hours, versus positive control group) | pathological section of mouse dorsal skin [3] | pathological section of mouse ear [3] | dorsal skin lesions of mice [4] | improvement effect on dorsal skin lesions, comparison among groups ([4]; 3mg group)
1 | H2N-AIB-Arg-Pro-Asp-Lys-Ala-Ala-Leu-Gly-Tyr-Gln-Lys-Arg-Pro-Leu-Pro-Gln-Val-Leu-Leu-Ser-Ser-Ile-CONH2 | 17.2 | 155000 | 0.002662 | 17.2 | more significant | decreased | widespread epidermis thickening (black arrow) could be observed in the tissue, and scattered lymphocyte and neutrophil infiltration could be observed in the dermis | no obvious abnormalities | significantly improve | best improvement effect
2 | H2N-AIB-Arg-Pro-Asp-Lys-Ala-Ala-Leu-Gly-Tyr-Gln-Lys-Arg-Pro-Leu-Pro-Gln-Val-Leu-Leu-Ser-Ser-Val-CONH2 | 229 | 3326 | 0.0007608 | 229 |  |  | rare parakeratosis in the stratum corneum (black arrow) and moderate thickening of the epidermis (yellow arrow), and scattered lymphocyte and neutrophil infiltration could be observed in the epidermis and dermis | widespread mild thickening of the epidermis with more pronounced local thickening (black arrow) in the tissue, and mild connective tissue hyperplasia locally in the epidermis (yellow arrow) could be observed, accompanied by lymphocyte and neutrophil infiltration | significantly improve | 

Read-outs that look alike come from different tables or passages of the source.
